Laboratory results reported in US9587266B2, “Mutant luciferases” (University of Massachusetts, priority 2011, dated 2017).

Sequences of proteins named here, by UniProt entry; tags and fusion partners are left off.
UniProt P08659, whole entry F247L/L286M: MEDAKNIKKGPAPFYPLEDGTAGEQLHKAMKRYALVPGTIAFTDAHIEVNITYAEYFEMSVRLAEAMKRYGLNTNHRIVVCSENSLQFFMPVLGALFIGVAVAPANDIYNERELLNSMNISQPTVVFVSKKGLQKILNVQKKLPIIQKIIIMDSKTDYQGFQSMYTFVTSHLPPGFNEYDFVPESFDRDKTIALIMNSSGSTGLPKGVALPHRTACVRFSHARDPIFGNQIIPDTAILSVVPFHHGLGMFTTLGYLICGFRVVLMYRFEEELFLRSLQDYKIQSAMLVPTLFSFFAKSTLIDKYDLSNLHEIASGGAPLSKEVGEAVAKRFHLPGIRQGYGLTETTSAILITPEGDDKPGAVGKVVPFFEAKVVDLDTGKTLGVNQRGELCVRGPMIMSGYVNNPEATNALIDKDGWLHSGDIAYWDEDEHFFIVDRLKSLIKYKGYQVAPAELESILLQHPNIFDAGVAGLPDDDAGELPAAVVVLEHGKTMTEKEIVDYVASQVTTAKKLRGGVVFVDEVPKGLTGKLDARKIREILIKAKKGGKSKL
UniProt P08659, whole entry I351A: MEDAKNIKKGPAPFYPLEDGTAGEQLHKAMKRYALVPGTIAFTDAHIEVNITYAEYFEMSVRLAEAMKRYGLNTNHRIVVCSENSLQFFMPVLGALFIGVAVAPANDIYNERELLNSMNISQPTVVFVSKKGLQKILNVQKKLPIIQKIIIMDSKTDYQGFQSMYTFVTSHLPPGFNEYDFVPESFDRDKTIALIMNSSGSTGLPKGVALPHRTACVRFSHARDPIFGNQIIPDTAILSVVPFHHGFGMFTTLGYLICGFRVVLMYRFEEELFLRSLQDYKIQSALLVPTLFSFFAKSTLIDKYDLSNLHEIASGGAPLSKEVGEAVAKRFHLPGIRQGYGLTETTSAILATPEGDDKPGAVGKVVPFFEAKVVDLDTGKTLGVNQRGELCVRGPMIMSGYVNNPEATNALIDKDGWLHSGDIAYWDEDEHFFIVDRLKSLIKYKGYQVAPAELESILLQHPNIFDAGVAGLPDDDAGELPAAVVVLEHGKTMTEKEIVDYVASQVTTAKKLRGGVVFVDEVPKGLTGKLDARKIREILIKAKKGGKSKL

How the values were obtained:
[1] = target: T1, F247L L286M luciferase (Photinus pyralis, UniProt P08659, F247L/L286M); test: Bioluminescence emission scan; type: biochemical
T1 construct: The full firefly (Photinus pyralis) luciferase gene was PCR amplified from pGL3 (Promega); GST (N, cleaved yes); made in house; host or cells: E. coli JM109
Protocol: (§1) Purified mutant luciferases were used in bioluminescence emission and burst kinetics scans.
(§2) Luciferase was rapidly injected into a cuvette containing substrate, and the emission from 400-800 nm was recorded in a SPEX FluoroMax-3 fluorimeter with closed excitation slits.

[2] = target: T2, I351A luciferase (Photinus pyralis, UniProt P08659, I351A); test: Bioluminescence emission scan; type: biochemical
T2 construct: The full firefly (Photinus pyralis) luciferase gene was PCR amplified from pGL3 (Promega); GST (N, cleaved yes); made in house; host or cells: E. coli JM109
Protocol: as §1, §2

## O=C(O)[C@H]1CSC(c2nc3ccc(O)cc3s2)=N1 [D-Luciferin, D-luciferin]
[1]
  Wavelength at Max. Emission: 570 nm
[2]
  Wavelength at Max. Emission: 570 nm
